Values joined by “and” are separate entries in the source; they are usually repeats but may differ in a detail not shown here. Equal entries are not always repeated. Where two headings read alike, the source gives them in different places.
What was measured:
EP300 bromodomain = molecular target: T1, EP300 bromodomain (Homo sapiens, UniProt Q09472); assay: Isothermal titration calorimetry (ITC); format: binding; settings: single ITC experiment, data fit ± SEM
T1 construct: 6xHis (cleaved yes); host or cells: E. coli BL21 (DE3) RIL
Description: (§1) After 18 h growth, the culture was harvested by centrifugation at 6000 × g for 25 min and stored at -80 °C. Harvested cell pellets were re-suspended in 50 mM Na/K phosphate buffer (pH 7.4) containing 100 mM NaCl, 40 mM imidazole, 0.01% w/v lysozyme and 0.01% v/v Triton X-100 at 4 °C for 1 h, subjected to sonication and the lysate was clarified by centrifugation (30,000 × g for 45 min at 4 °C). Proteins were purified by FPLC at 4 °C using columns and chromatography materials from GE Healthcare. […] Proteins were purified to homogeneity by size exclusion chromatography using Superdex 75 equilibrated with elution buffer (50 mM HEPES pH 7.5, 100 mM NaCl, 2 mM DTT). […] Pool fractions were combined, concentrated to 10–12 mg/ml, and aliquots were flash-frozen in liquid N2 and stored at −80 °C.

The chains behind the UniProt entries cited, without tags or fusion partners. Residues count along the entry.
UniProt Q09472, 1048-1161: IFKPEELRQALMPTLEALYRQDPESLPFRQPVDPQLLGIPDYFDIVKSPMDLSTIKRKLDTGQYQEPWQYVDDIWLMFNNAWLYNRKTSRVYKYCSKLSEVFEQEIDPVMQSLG
UniProt Q92793, 1085-1192 limits assumed: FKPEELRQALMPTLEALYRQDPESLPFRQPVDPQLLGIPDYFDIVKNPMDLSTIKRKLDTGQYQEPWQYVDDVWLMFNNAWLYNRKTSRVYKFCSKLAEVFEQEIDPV
UniProt Q92793, 1081-1197: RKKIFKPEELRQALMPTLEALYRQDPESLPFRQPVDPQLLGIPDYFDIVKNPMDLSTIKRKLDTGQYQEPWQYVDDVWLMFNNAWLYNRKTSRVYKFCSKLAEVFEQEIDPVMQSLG
UniProt Q92793, whole entry: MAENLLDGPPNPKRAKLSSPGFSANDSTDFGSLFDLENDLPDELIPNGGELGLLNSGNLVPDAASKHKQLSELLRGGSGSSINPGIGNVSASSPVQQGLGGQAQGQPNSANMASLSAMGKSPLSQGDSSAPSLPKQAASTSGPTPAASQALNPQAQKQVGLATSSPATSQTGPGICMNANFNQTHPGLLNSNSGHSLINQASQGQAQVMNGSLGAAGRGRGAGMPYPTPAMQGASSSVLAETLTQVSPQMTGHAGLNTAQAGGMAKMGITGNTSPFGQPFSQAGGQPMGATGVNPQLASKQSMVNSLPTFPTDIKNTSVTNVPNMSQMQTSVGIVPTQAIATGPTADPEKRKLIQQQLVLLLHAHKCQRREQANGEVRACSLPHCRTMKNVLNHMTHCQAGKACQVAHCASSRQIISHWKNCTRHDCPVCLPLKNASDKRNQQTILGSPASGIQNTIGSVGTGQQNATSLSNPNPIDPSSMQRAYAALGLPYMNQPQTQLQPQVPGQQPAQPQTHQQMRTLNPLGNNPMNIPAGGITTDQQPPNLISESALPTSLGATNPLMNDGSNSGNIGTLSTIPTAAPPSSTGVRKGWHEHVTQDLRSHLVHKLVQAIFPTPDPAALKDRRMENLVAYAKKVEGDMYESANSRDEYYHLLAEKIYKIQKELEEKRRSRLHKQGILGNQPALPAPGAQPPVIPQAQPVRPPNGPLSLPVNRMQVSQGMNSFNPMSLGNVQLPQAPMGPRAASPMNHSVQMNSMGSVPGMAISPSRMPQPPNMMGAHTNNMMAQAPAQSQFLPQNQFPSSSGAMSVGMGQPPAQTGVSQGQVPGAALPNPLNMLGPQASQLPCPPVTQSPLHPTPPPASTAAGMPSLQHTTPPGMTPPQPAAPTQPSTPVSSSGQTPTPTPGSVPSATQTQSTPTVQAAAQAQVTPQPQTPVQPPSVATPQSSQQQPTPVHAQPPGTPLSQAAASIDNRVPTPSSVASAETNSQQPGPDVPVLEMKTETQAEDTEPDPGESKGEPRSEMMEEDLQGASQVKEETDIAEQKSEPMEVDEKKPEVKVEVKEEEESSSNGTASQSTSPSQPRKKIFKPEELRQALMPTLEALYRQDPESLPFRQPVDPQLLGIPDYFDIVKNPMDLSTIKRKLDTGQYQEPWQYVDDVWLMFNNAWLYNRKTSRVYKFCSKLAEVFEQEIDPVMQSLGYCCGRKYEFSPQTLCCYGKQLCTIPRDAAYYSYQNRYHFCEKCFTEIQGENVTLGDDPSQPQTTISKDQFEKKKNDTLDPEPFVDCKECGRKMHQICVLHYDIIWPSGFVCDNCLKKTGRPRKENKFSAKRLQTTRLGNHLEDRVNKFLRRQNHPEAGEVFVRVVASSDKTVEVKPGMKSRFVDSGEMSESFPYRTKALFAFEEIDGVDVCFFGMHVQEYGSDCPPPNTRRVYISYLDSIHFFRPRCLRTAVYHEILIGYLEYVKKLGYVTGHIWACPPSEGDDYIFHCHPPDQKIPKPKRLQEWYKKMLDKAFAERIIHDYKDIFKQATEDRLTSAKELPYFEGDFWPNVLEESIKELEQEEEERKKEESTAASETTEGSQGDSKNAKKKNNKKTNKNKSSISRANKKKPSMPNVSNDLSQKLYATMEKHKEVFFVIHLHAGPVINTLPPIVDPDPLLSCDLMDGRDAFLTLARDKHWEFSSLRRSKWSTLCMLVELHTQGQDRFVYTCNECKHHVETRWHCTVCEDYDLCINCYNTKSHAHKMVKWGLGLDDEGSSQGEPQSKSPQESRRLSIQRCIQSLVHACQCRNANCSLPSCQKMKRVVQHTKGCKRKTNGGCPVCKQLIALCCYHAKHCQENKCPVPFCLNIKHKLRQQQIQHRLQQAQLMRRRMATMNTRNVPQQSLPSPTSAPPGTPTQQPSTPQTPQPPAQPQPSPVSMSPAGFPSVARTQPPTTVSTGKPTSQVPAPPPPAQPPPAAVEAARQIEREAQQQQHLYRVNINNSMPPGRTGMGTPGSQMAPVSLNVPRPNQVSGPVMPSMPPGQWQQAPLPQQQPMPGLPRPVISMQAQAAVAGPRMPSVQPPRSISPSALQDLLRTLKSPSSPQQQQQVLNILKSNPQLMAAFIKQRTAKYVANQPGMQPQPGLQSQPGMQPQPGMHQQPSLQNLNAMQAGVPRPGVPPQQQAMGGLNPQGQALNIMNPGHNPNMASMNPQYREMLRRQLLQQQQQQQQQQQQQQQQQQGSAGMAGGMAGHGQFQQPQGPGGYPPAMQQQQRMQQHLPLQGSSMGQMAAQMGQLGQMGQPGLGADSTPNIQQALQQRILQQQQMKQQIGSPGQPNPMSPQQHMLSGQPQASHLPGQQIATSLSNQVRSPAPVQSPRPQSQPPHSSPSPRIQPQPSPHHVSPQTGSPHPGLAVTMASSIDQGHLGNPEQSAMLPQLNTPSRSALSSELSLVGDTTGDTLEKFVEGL

[1] = molecular target: GFP-tagged CBP bromodomain (Homo sapiens, UniProt Q92793); assay: Microscale thermophoresis (MST); format: binding
Description: MST experiments were performed in a Monolith NT.115 Pico instrument (NanoTemper Technologies) following published procedures. […] MST traces were recorded using standard parameters: 5 s MST power off, 30 s MST power on and 5 s MST power off. Measurements were taken at -1-0 s (cold region) and 10 s (hot region) and data were analyzed using the NTAnalysis software.

CBP bromodomain [2] = molecular target: T2, CBP bromodomain (Homo sapiens, UniProt Q92793); assay: Differential scanning fluorimetry (DSF) thermal shift; format: binding; settings: for ΔTm (°C): DSF thermal shift vs DMSO, Fig 2B
T2 construct: CBP (residues 1081-1197); 6xHis (cleaved yes); host or cells: E. coli BL21 (DE3) RIL
Description: as §1
DSF experiments were performed with an Applied Biosystem StepOnePlus real-time PCR system (Thermo Fisher Scientific) using 96-well format plates, assayed in quadruplicate. For thermal shift determination, 5 μM protein was mixed with 100 μM compound in 50 mM HEPES, pH 7.5, 150 mM NaCl, 2 mM DTT, 2% DMSO, 5X SYPRO Orange (Thermo Fisher Scientific) in 20 μL reaction volumes.

CREBBP = CREBBP (Homo sapiens, UniProt Q92793); assay: biochemical; settings: read-out: Percent Control CREBBP
Description: Dose-response sequencing data was processed to determine area-under-the-curve (AUC) values, as previously described[33],[34]. Tumor type assignments for cell lines were determined using the Cancer Cell Line Encyclopedia annotations. […] Tumor grouping analyses were restricted to those with >3 representative cell lines. AUC data for each compound was normalized across all cell lines treated by calculating the median AUC per treatment and then median normalizing the data.

[3] = tested on: 460 barcoded cancer cell lines; assay: PRISM pooled barcoded cancer cell line growth screen, 10-point dose-response, 5 days, AUC; format: cell-based; set-up: scale not given here
Text: Several small molecule inhibitors of distinct protein domains of EP300/CBP are available, though the majority target the histone acetyltransferase domain (HAT) or bromodomain (BRD)[5],[10],[21],[22]. […] Thus, these compounds provide a unique opportunity to compare the effects of domain-specific inhibition of EP300 and CBP. We used these tools to investigate the relative contribution of the EP300/CBP BRD or HAT domain to tumor cell growth (Fig. 1a). To do so, we performed 10-point, dose-response growth assays using mixed pools of 460 barcoded cancer cell lines, over five days of treatment in vitro[33],[34]. Growth was measured using an area-under-the-curve (AUC) approach (Supplementary Table 1, Supplementary Fig. 1a). […] Given potential differences in compound penetration and solubility, and to compare the relative cell line and tumor-specific effects of these two compounds in assays performed non-simultaneously, we performed a median normalization of each dataset (Supplementary Table 2). […] Next, we sought to use this to examine the relative cell line-specific response to either A485 or CCS1477.

CBP bromodomain [4] = molecular target: T2, CBP bromodomain; assay: Isothermal titration calorimetry (ITC); format: binding; settings: single ITC experiment, data fit ± SEM
Description: At OD600 of 0.6, the culture was cooled down to 18 °C and induced with 0.1 mM IPTG. After 18 h growth, the culture was harvested by centrifugation at 6000 × g for 25 min and stored at -80 °C. Harvested cell pellets were re-suspended in 50 mM Na/K phosphate buffer (pH 7.4) containing 100 mM NaCl, 40 mM imidazole, 0.01% w/v lysozyme and 0.01% v/v Triton X-100 at 4 °C for 1 h, subjected to sonication and the lysate was clarified by centrifugation (30,000 × g for 45 min at 4 °C). Proteins were purified by FPLC at 4 °C using columns and chromatography materials from GE Healthcare. […] Proteins were purified to homogeneity by size exclusion chromatography using Superdex 75 equilibrated with elution buffer (50 mM HEPES pH 7.5, 100 mM NaCl, 2 mM DTT). All BRDs eluted as monomeric protein and were of crystallization grade quality (>95% purity as judged by SDS-PAGE). […]
All experiments were conducted using an PEAQ-ITC calorimeter (Malvern Scientific). […] Data were corrected for dilution and analyzed using the MicroCal Origin software to determine the enthalpies of binding (ΔH) and binding constants as described. Thermodynamic parameters were calculated using the basic equation of thermodynamics (ΔG = ΔH − TΔS = −RTlnKB) where ΔG, ΔH and ΔS are the changes in free energy, enthalpy and entropy of binding, respectively. […]

Compound	Kd (EP300 bromodomain)	Kd ([1]; MO.Affinity Analysis export, single runs, target clGFP-CBPBRD 5e-8, unit inferred, read-out: Kd (fit result of individual MST run))	Kd ([1]; three independent MST experiments, average ± SD, read-out: Kd (nM) CBP (converted))	ΔTm (°C) (CBP bromodomain [2]; CBP bromodomain)	∆Tm (°C) CBP (CBP bromodomain [2]; DSF, 5 μM protein, 100 μM compound, three independent experiments, average ± SD)	ΔTm (°C) CBP (CBP bromodomain [2]; Figure 3A, DSF, CBP bromodomain)	ΔTm (°C) CBP (CBP bromodomain [2]; Figure 3B, DSF, CBP)	DSF ΔTm (°C) (CBP bromodomain [2]; Figure 3C, DSF (values equal CBP column))	remaining activity at 1 µM (CREBBP)	AUC ([3]; AGS, Gastric Cancer)	AUC ([3]; CHAGOK1, Lung Cancer)	AUC ([3]; COV644, Ovarian Cancer)	AUC ([3]; LS1034, Colon/Colorectal Cancer)	AUC ([3]; MHHES1, Ewing Sarcoma)	AUC ([3]; SNU398, Liver Cancer)	AUC ([3]; TE5, Esophageal Cancer)	Kd (CBP bromodomain [4])
CO[C@H]1CC[C@H](n2c([C@@H]3CCCC(=O)N3c3ccc(F)c(F)c3)nc3cc(-c4c(C)noc4C)ccc32)CC1 [CCS1477]	26 nM and 25.5 nM	0.919 nM and 3.02 nM	1.3 nM	17.7 °C	17.7 ± 0.08 °C and 17.7 °C	17.7 °C	17.7 °C	17.7 °C	0.7%	0.852	0.8771	0.8768	0.8771	0.9189	0.8888	0.8767	4 ± 6.7 nM
COc1ccc(CCc2nc3cc(-c4c(C)noc4C)ccc3n2C[C@H](C)N2CCOCC2)cc1Cl [SGC-CBP30]	–	–	–	8.5 °C	–	–	–	–	–	–	–	–	–	–	–	–	–

Reference: article PMC11045757, “Group 3 medulloblastoma transcriptional networks collapse under domain specific EP300/CBP inhibition” (Nature Communications, 2024)
